Tests used:
[1] = test system: Lys(Dnp)-ATNATDLPRIVGG-Lys(Abz)
[2] = test system: Lys(Dnp)-ATNATDQPRIVGG-Lys(Abz)
[3] = test system: Lys(Dnp)-ATNATDRPRIVGG-Lys(Abz)
[4] = test system: Lys(Dnp)-ATNATDTPRIVGG-Lys(Abz)
[5] = test system: Lys(Dnp)-ATNATEGPRIVGG-Lys(Abz)
[6] = test system: Lys(Dnp)-ATNATELPRIVGG-Lys(Abz)
[7] = test system: Lys(Dnp)-ATNATEMPRIVGG-Lys(Abz)
[8] = test system: Lys(Dnp)-ATNATEQPRIVGG-Lys(Abz)
[9] = test system: Lys(Dnp)-ATNATESPRIVGG-Lys(Abz)
[10] = test system: Lys(Dnp)-ATNATGDPRIVGG-Lys(Abz)
[11] = test system: Lys(Dnp)-ATNATGEPRIVGG-Lys(Abz)
[12] = test system: Lys(Dnp)-ATNATGLPRIVGG-Lys(Abz)
[13] = test system: Lys(Dnp)-ATNATHEPRIVGG-Lys(Abz)
[14] = test system: Lys(Dnp)-ATNATHIPRIVGG-Lys(Abz)
[15] = test system: Lys(Dnp)-ATNATHLPRIVGG-Lys(Abz)
[16] = test system: Lys(Dnp)-ATNATHMPRIVGG-Lys(Abz)
[17] = test system: Lys(Dnp)-ATNATHVPRIVGG-Lys(Abz)
[18] = test system: Lys(Dnp)-ATNATKAPRIVGG-Lys(Abz)
[19] = test system: Lys(Dnp)-ATNATKEPRIVGG-Lys(Abz)
[20] = test system: Lys(Dnp)-ATNATKIPRIVGG-Lys(Abz)
[21] = test system: Lys(Dnp)-ATNATKKPRIVGG-Lys(Abz)
[22] = test system: Lys(Dnp)-ATNATKLPRIVGG-Lys(Abz)
[23] = test system: Lys(Dnp)-ATNATKNPRIVGG-Lys(Abz)
[24] = test system: Lys(Dnp)-ATNATKQPRIVGG-Lys(Abz)
[25] = test system: Lys(Dnp)-ATNATKSPRIVGG-Lys(Abz)
[26] = test system: Lys(Dnp)-ATNATKVPRIVGG-Lys(Abz)
[27] = test system: Lys(Dnp)-ATNATKWPRIVGG-Lys(Abz)
[28] = test system: Lys(Dnp)-ATNATMDPRIVGG-Lys(Abz)
[29] = test system: Lys(Dnp)-ATNATNAPRIVGG-Lys(Abz)
[30] = test system: Lys(Dnp)-ATNATNIPRIVGG-Lys(Abz)
[31] = test system: Lys(Dnp)-ATNATNNPRIVGG-Lys(Abz)
[32] = test system: Lys(Dnp)-ATNATNRPRIVGG-Lys(Abz)
[33] = test system: Lys(Dnp)-ATNATNWPRIVGG-Lys(Abz)
[34] = test system: Lys(Dnp)-ATNATQAPRIVGG-Lys(Abz)
[35] = test system: Lys(Dnp)-ATNATQEPRIVGG-Lys(Abz)
[36] = test system: Lys(Dnp)-ATNATQGPRIVGG-Lys(Abz)
[37] = test system: Lys(Dnp)-ATNATQSPRIVGG-Lys(Abz)
[38] = test system: Lys(Dnp)-ATNATRDPRIVGG-Lys(Abz)
[39] = test system: Lys(Dnp)-ATNATREPRIVGG-Lys(Abz)
[40] = test system: Lys(Dnp)-ATNATRGPRIVGG-Lys(Abz)
[41] = test system: Lys(Dnp)-ATNATRHPRIVGG-Lys(Abz)
[42] = test system: Lys(Dnp)-ATNATRKPRIVGG-Lys(Abz)
[43] = test system: Lys(Dnp)-ATNATRLPRIVGG-Lys(Abz)
[44] = test system: Lys(Dnp)-ATNATRNPRIVGG-Lys(Abz)
[45] = test system: Lys(Dnp)-ATNATRRPRIVGG-Lys(Abz)
[46] = test system: Lys(Dnp)-ATNATRSPRIVGG-Lys(Abz)
[47] = test system: Lys(Dnp)-ATNATRTPRIVGG-Lys(Abz)
[48] = test system: Lys(Dnp)-ATNATRVPRIVGG-Lys(Abz)
[49] = test system: Lys(Dnp)-ATNATRWPRIVGG-Lys(Abz)
[50] = test system: Lys(Dnp)-ATNATRYPRIVGG-Lys(Abz)
[51] = test system: Lys(Dnp)-ATNATSLPRIVGG-Lys(Abz)
[52] = test system: Lys(Dnp)-ATNATSNPRIVGG-Lys(Abz)
[53] = test system: Lys(Dnp)-ATNATTPPRIVGG-Lys(Abz)
[54] = test system: Lys(Dnp)-ATNATVPPRIVGG-Lys(Abz)
[55] = test system: Lys(Dnp)-ATNATWLPRIVGG-Lys(Abz)

Human plasma purified alpha-thrombin
FIIa kcat/KM [1]: 210 M⁻¹ s⁻¹
Specificity Ratio (FIIa/FXa) [1]: 8
FIIa kcat/KM [2]: 160 M⁻¹ s⁻¹
Specificity Ratio (FIIa/FXa) [2]: 75
FIIa kcat/KM [3]: 340 M⁻¹ s⁻¹
Specificity Ratio (FIIa/FXa) [3]: 2
FIIa kcat/KM [4]: 250 M⁻¹ s⁻¹
Specificity Ratio (FIIa/FXa) [4]: 38
FIIa kcat/KM [5]: 98 M⁻¹ s⁻¹
Specificity Ratio (FIIa/FXa) [5]: 5
FIIa kcat/KM [6]: 210 M⁻¹ s⁻¹
Specificity Ratio (FIIa/FXa) [6]: 2
FIIa kcat/KM [7]: 150 M⁻¹ s⁻¹
Specificity Ratio (FIIa/FXa) [7]: 12
FIIa kcat/KM [8]: 110 M⁻¹ s⁻¹
Specificity Ratio (FIIa/FXa) [8]: 10
FIIa kcat/KM [9]: 160 M⁻¹ s⁻¹
Specificity Ratio (FIIa/FXa) [9]: 30
FIIa kcat/KM [10]: 540 M⁻¹ s⁻¹
Specificity Ratio (FIIa/FXa) [10]: 7
FIIa kcat/KM [11]: 510 M⁻¹ s⁻¹
Specificity Ratio (FIIa/FXa) [11]: 6
FIIa kcat/KM [12]: 1100 M⁻¹ s⁻¹
Specificity Ratio (FIIa/FXa) [12]: 14
FIIa kcat/KM [13]: 230 M⁻¹ s⁻¹
Specificity Ratio (FIIa/FXa) [13]: 2
FIIa kcat/KM [14]: 820 M⁻¹ s⁻¹
Specificity Ratio (FIIa/FXa) [14]: 10
FIIa kcat/KM [15]: 470 M⁻¹ s⁻¹
Specificity Ratio (FIIa/FXa) [15]: 3
FIIa kcat/KM [16]: 1300 M⁻¹ s⁻¹
Specificity Ratio (FIIa/FXa) [16]: 5
FIIa kcat/KM [17]: 540 M⁻¹ s⁻¹
Specificity Ratio (FIIa/FXa) [17]: 14
FIIa kcat/KM [18]: 360 M⁻¹ s⁻¹
Specificity Ratio (FIIa/FXa) [18]: 7
FIIa kcat/KM [19]: 270 M⁻¹ s⁻¹
Specificity Ratio (FIIa/FXa) [19]: 4
FIIa kcat/KM [20]: 990 M⁻¹ s⁻¹
Specificity Ratio (FIIa/FXa) [20]: 16
FIIa kcat/KM [21]: 520 M⁻¹ s⁻¹
Specificity Ratio (FIIa/FXa) [21]: 21
FIIa kcat/KM [22]: 880 M⁻¹ s⁻¹
Specificity Ratio (FIIa/FXa) [22]: 10
FIIa kcat/KM [23]: 370 M⁻¹ s⁻¹
Specificity Ratio (FIIa/FXa) [23]: 6
FIIa kcat/KM [24]: 640 M⁻¹ s⁻¹
Specificity Ratio (FIIa/FXa) [24]: 6
FIIa kcat/KM [25]: 470 M⁻¹ s⁻¹
Specificity Ratio (FIIa/FXa) [25]: 6
FIIa kcat/KM [26]: 590 M⁻¹ s⁻¹
Specificity Ratio (FIIa/FXa) [26]: 12
FIIa kcat/KM [27]: 1100 M⁻¹ s⁻¹
Specificity Ratio (FIIa/FXa) [27]: 8
FIIa kcat/KM [28]: 1600 M⁻¹ s⁻¹
Specificity Ratio (FIIa/FXa) [28]: 3
FIIa kcat/KM [29]: 430 M⁻¹ s⁻¹
Specificity Ratio (FIIa/FXa) [29]: 25
FIIa kcat/KM [30]: 640 M⁻¹ s⁻¹
Specificity Ratio (FIIa/FXa) [30]: 17
FIIa kcat/KM [31]: 290 M⁻¹ s⁻¹
Specificity Ratio (FIIa/FXa) [31]: 19
FIIa kcat/KM [32]: 1400 M⁻¹ s⁻¹
Specificity Ratio (FIIa/FXa) [32]: 7
FIIa kcat/KM [33]: 1200 M⁻¹ s⁻¹
Specificity Ratio (FIIa/FXa) [33]: 13
FIIa kcat/KM [34]: 1800 M⁻¹ s⁻¹
Specificity Ratio (FIIa/FXa) [34]: 5
FIIa kcat/KM [35]: 1800 M⁻¹ s⁻¹
Specificity Ratio (FIIa/FXa) [35]: 2
FIIa kcat/KM [36]: 1100 M⁻¹ s⁻¹
Specificity Ratio (FIIa/FXa) [36]: 7
FIIa kcat/KM [37]: 3100 M⁻¹ s⁻¹
Specificity Ratio (FIIa/FXa) [37]: 3
FIIa kcat/KM [38]: 3600 M⁻¹ s⁻¹
Specificity Ratio (FIIa/FXa) [38]: 3
FIIa kcat/KM [39]: 870 M⁻¹ s⁻¹
Specificity Ratio (FIIa/FXa) [39]: 0
FIIa kcat/KM [40]: 880 M⁻¹ s⁻¹
Specificity Ratio (FIIa/FXa) [40]: 1
FIIa kcat/KM [41]: 960 M⁻¹ s⁻¹
FIIa kcat/KM [42]: 590 M⁻¹ s⁻¹
Specificity Ratio (FIIa/FXa) [42]: 1
FIIa kcat/KM [43]: 920 M⁻¹ s⁻¹
Specificity Ratio (FIIa/FXa) [43]: 1
FIIa kcat/KM [44]: 670 M⁻¹ s⁻¹
FIIa kcat/KM [45]: 980 M⁻¹ s⁻¹
Specificity Ratio (FIIa/FXa) [45]: 1
FIIa kcat/KM [46]: 660 M⁻¹ s⁻¹
FIIa kcat/KM [47]: 640 M⁻¹ s⁻¹
FIIa kcat/KM [48]: 590 M⁻¹ s⁻¹
Specificity Ratio (FIIa/FXa) [48]: 1
FIIa kcat/KM [49]: 1500 M⁻¹ s⁻¹
Specificity Ratio (FIIa/FXa) [49]: 0
FIIa kcat/KM [50]: 690 M⁻¹ s⁻¹
Specificity Ratio (FIIa/FXa) [50]: 1
FIIa kcat/KM [51]: 790 M⁻¹ s⁻¹
Specificity Ratio (FIIa/FXa) [51]: 10
FIIa kcat/KM [52]: 540 M⁻¹ s⁻¹
Specificity Ratio (FIIa/FXa) [52]: 23
FIIa kcat/KM [53]: 820 M⁻¹ s⁻¹
Specificity Ratio (FIIa/FXa) [53]: 11
FIIa kcat/KM [54]: 95 M⁻¹ s⁻¹
Specificity Ratio (FIIa/FXa) [54]: 15
FIIa kcat/KM [55]: 1800 M⁻¹ s⁻¹
Specificity Ratio (FIIa/FXa) [55]: 4

Human plasma purified α-thrombin
kcat/KM [1]: 210 M⁻¹ s⁻¹
kcat/KM [2]: 160 M⁻¹ s⁻¹
kcat/KM [3]: 340 M⁻¹ s⁻¹
kcat/KM [4]: 250 M⁻¹ s⁻¹
kcat/KM [5]: 98 M⁻¹ s⁻¹
kcat/KM [6]: 210 M⁻¹ s⁻¹
kcat/KM [7]: 150 M⁻¹ s⁻¹
kcat/KM [8]: 110 M⁻¹ s⁻¹
kcat/KM [9]: 160 M⁻¹ s⁻¹
kcat/KM [10]: 540 M⁻¹ s⁻¹
kcat/KM [11]: 510 M⁻¹ s⁻¹
kcat/KM [12]: 1100 M⁻¹ s⁻¹
kcat/KM [13]: 230 M⁻¹ s⁻¹
kcat/KM [14]: 820 M⁻¹ s⁻¹
kcat/KM [15]: 470 M⁻¹ s⁻¹
kcat/KM [16]: 1300 M⁻¹ s⁻¹
kcat/KM [17]: 540 M⁻¹ s⁻¹
kcat/KM [18]: 360 M⁻¹ s⁻¹
kcat/KM [19]: 270 M⁻¹ s⁻¹
kcat/KM [20]: 990 M⁻¹ s⁻¹
kcat/KM [21]: 520 M⁻¹ s⁻¹
kcat/KM [22]: 880 M⁻¹ s⁻¹
kcat/KM [23]: 370 M⁻¹ s⁻¹
kcat/KM [24]: 640 M⁻¹ s⁻¹
kcat/KM [25]: 470 M⁻¹ s⁻¹
kcat/KM [26]: 590 M⁻¹ s⁻¹
kcat/KM [27]: 1100 M⁻¹ s⁻¹
kcat/KM [28]: 1600 M⁻¹ s⁻¹
kcat/KM [29]: 430 M⁻¹ s⁻¹
kcat/KM [30]: 640 M⁻¹ s⁻¹
kcat/KM [31]: 290 M⁻¹ s⁻¹
kcat/KM [32]: 1400 M⁻¹ s⁻¹
kcat/KM [33]: 1200 M⁻¹ s⁻¹
kcat/KM [34]: 1800 M⁻¹ s⁻¹
kcat/KM [35]: 1800 M⁻¹ s⁻¹
kcat/KM [36]: 1100 M⁻¹ s⁻¹
kcat/KM [37]: 3100 M⁻¹ s⁻¹
kcat/KM [38]: 3600 M⁻¹ s⁻¹
kcat/KM [39]: 870 M⁻¹ s⁻¹
kcat/KM [40]: 880 M⁻¹ s⁻¹
kcat/KM [41]: 960 M⁻¹ s⁻¹
kcat/KM [42]: 590 M⁻¹ s⁻¹
kcat/KM [43]: 920 M⁻¹ s⁻¹
kcat/KM [44]: 670 M⁻¹ s⁻¹
kcat/KM [45]: 980 M⁻¹ s⁻¹
kcat/KM [46]: 660 M⁻¹ s⁻¹
kcat/KM [47]: 640 M⁻¹ s⁻¹
kcat/KM [48]: 590 M⁻¹ s⁻¹
kcat/KM [49]: 1500 M⁻¹ s⁻¹
kcat/KM [50]: 690 M⁻¹ s⁻¹
kcat/KM [51]: 790 M⁻¹ s⁻¹
kcat/KM [52]: 540 M⁻¹ s⁻¹
kcat/KM [53]: 820 M⁻¹ s⁻¹
kcat/KM [54]: 95 M⁻¹ s⁻¹
kcat/KM [55]: 1800 M⁻¹ s⁻¹

Reference: patent US20160024487
